What was measured:
[1] = tested on: TFEB; test: TFEB translocation assay (TFEB reporter in U2OS cells, imaging); conditions: U2OS cell line with TFEB reporter, 2 hours incubation, nucleus to cytoplasm ratio, normalized to Torin-1
Description: Example B: TFEB Translocation Assay
Reporter TFEB: the reporter is fused to a sequence of monomeric red fluorescent protein.
The reporter TFEB have been stably expressed in U2OS cell line and used as read-out.
Experiments were performed in 384 MTP well format. Cells were seeded in 384-w at a density of 4000 cells/well in 20 μl/well complete growth medium without antibiotics. Twenty-four hours later, cells were treated with compounds and incubated for further 2 hours. Then the cells were imaged and assayed for the response to various compounds using the reporter for TFEB expressed in the cells as readout.
The experiments were performed in a 384-well format according to the following procedure: • 24 h after seeding, cell culture medium was carefully removed and replaced with 20 μl of Opti-MEM (30′ incubation at 37° C. before compound addition) • Then, cells were incubated with compounds diluted in Opti-MEM+0.015% Tween 80 at the desired concentration, with the reference molecule (agonist) Torin-1 at a top concentration of 1 μM (max signal), and with the other reference molecule (agonist) MLSA-5 at top concentration of 20 μM for 2 hours at 37° C. and 5% CO2. […] The image analysis involved the following steps: flat-field illumination correction, nuclei segmentation, cytoplasm segmentation and calculation of intensity fluorescence in the cytosol and nuclei compartments. […]

The chains behind the UniProt entries cited, without tags or fusion partners.
UniProt Q9GZU1, whole entry: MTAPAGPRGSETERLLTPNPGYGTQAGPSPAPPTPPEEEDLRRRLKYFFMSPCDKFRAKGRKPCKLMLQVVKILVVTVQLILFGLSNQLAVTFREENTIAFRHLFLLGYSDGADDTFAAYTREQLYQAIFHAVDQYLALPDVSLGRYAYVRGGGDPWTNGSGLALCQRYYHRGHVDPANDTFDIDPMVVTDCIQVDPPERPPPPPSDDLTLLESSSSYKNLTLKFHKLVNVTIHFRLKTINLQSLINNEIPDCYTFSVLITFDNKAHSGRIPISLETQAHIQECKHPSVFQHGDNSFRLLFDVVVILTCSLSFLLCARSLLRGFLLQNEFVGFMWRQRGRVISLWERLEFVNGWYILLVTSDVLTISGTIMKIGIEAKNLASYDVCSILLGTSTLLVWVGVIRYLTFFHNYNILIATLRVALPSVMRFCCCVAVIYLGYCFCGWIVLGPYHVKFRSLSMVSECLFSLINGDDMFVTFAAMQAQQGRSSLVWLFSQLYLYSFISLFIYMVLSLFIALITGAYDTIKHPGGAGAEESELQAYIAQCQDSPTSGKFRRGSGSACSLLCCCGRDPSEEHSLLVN

[2] = molecular target: TRPML1 (Homo sapiens, UniProt Q9GZU1); test: Cellular TRPML1 assay (FLIPR, GCaMP6f calcium read-out); assay type: cell-based; conditions: HEKT-REx/GCaMP6f/TRPML1 cells, FLIPR TETRA, kinetic response over 300 seconds
Description: Example A: Cellular TRPML1 Assay
The final clone for the TRPML1 assay is HEKT-REx/GCaMP6f/TRPML1. GCaMP6f is a genetically encoded calcium indicator that is stably expressed in this cell line and used as a fluorescent read-out.
Experiments were performed in 384 MTP format. Cells are seeded at 15000 cells/well in 20 μl/well of Optimem+0.5% FBS without selection antibiotics. Twenty-four hours later, cells are assayed for the response to various compounds using the Ca^2+ sensitive GCaMP6f protein stably expressed in the cells as readout.
The experiment was performed in a 384-well format according to the following procedures: • 24 h after seeding, the cells were pre-incubated at room temperature for about 10 min. • Started the experiment at the FLIPR^TETRA by injecting 10 μL/w of 3× concentrated test compounds and controls in Ca^2+ free Tyrode's buffer. Monitored the kinetic response over a period of 300 seconds. • Final DMSO concentration: 0.5%
Data from FLIPR^TETRA measurements were analyzed with the Genedata Screener© software.

## COCc1oc(N2CCCC2)nc1C(=O)Nc1ccc(N2CCCCC2)c(F)c1
[1]
  TFEB Translocation pEC50: B (B = 6.0-5.0)
[2]
  TRPML1 FLIPR pEC50: B (B = 6.0-5.0)
